Molecular target: GST-LSD1 (Homo sapiens, UniProt O60341)
Test: biochemical

IC50 [µM] | kinact [s⁻¹] | kinact/KI (read-out: kinact/Ki(inact)) [M⁻¹ s⁻¹] | SMILES
46.7 | – | – | CNNCCCc1ccccc1 [9d]
– | 0.00283 | 28300 | NNCCc1ccc(NC(=O)CCCc2c[nH]c3ccccc23)cc1 [15b]
85 | – | – | CNNCCc1ccccc1.Cl.Cl [9a]

— publication PMC4076021 (ACS chemical biology, 2014)
